Earlier results as cited in patent US20160168446A1, “METHOD FOR PRODUCING MINERAL OIL FROM AN UNDERGROUND MINERAL OIL DEPOSIT USING A COMPOSITION (Z) COMPRISING A GLYCEROL-BORIC ACID COMPLEX” (priority 2013, published 2016).

Details: complex (I) and salts thereof

water solubility compared with boric acid or borax: much better water solubility
Substance: glycerol-boric acid complex [glycerol-boric acid complex (I)]
